One compound from ChEMBL document CHEMBL1152978 (J Med Chem, 2009) can be followed below.

Amino acid sequences for entries named in this document (tags omitted). A change or cut given only in a name is not applied to a line headed by its entry.
UniProt P20309, whole entry: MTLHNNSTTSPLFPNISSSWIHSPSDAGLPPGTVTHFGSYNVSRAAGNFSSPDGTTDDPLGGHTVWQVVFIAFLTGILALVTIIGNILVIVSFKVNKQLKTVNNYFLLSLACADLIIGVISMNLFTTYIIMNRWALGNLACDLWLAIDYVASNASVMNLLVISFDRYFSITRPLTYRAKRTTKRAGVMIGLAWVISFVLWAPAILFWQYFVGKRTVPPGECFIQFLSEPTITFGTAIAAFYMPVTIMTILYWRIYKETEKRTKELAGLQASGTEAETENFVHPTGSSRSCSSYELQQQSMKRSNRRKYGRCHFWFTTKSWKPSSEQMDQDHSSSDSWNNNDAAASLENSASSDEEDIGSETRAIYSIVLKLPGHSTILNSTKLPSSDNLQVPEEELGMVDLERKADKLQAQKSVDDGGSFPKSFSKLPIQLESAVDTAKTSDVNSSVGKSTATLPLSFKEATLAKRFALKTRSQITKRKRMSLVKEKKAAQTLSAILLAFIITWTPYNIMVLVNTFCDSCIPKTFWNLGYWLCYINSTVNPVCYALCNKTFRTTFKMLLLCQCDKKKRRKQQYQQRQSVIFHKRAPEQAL
UniProt P08172, whole entry: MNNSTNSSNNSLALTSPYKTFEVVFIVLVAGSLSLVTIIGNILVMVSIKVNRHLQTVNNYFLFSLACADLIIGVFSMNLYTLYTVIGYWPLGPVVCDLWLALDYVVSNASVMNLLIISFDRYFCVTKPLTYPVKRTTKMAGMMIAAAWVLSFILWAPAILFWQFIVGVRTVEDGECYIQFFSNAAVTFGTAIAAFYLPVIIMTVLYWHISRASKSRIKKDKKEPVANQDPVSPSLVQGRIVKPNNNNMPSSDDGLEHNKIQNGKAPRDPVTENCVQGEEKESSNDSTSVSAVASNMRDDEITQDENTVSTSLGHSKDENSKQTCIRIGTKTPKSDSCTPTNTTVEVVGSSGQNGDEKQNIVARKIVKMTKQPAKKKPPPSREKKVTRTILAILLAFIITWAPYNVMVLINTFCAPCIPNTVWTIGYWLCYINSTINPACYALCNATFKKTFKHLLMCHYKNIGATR
UniProt P11229: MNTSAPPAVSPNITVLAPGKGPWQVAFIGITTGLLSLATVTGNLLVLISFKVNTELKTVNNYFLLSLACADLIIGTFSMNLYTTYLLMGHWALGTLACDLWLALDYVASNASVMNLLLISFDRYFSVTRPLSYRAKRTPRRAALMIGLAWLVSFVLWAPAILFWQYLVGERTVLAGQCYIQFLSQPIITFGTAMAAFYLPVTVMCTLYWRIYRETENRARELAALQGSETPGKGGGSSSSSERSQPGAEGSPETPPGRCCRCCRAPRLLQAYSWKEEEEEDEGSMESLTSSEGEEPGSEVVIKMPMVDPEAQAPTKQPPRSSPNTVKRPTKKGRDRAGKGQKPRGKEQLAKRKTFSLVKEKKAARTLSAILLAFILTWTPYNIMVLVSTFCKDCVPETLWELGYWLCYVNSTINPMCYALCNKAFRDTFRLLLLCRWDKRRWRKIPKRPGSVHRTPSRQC

pIC50, pKi: −log10 of the molar value.

Experiment [1] deals with T1, Muscarinic acetylcholine receptor M3 (Homo sapiens, UniProt P20309). The experiment in a line: Displacement of [3H]NMS from human muscarinic M3 receptor expressed in CHOK1 cells by microplate scintillation counting. The experiment is classed as cell-based, CHO-K1. (In general: Loss of bound radioactivity is the signal in a displacement assay; it reports binding, not function.)

The target of experiment [2] is T2, Muscarinic acetylcholine receptor M2 (Homo sapiens, UniProt P08172). The experiment in a line: Binding affinity to muscarinic M2 receptor.
In experiment [3] the target is T2, Muscarinic acetylcholine receptor M2. The experiment in a line: Displacement of [3H]NMS from human muscarinic M2 receptor expressed in CHOK1 cells by microplate scintillation counting. The experiment is classed as cell-based, CHO-K1.
Experiment [4] deals with T1, Muscarinic acetylcholine receptor M3.
In experiment [5] the target is T3, Muscarinic acetylcholine receptor M1 (Homo sapiens, UniProt P11229). As to the kind of experiment: Displacement of [3H]NMS from human muscarinic M1 receptor expressed in CHOK1 cells by microplate scintillation counting. The experiment is classed as cell-based, CHO-K1.
Experiment [6] concerns the target T3, Muscarinic acetylcholine receptor M1. As to the kind of experiment: Binding affinity to muscarinic M1 receptor.

In general, pIC50 refers to the negative decadic logarithm of the IC50, by convention in mol/L. The low end stands for a large IC50, the high end for a small IC50. One may read the pKi as −log10 of the Ki, conventionally taken in molar units. Lower therefore signals a large Ki. Regarding `CC(C)[N+]1(C)C2CCC1CC(OC(=O)C(CO)c1ccccc1)C2.O.[Br-]` (stereo unspecified), the negative-log IC50 (pIC50) in experiment [1] is 8.68; in experiment [3], 8.65; in experiment [5], 8.58. Also, the results for the negative-log Ki (pKi) in experiment [2], in experiment [4] and in experiment [6] were 8.99, 9.08 and 8.82, respectively.
